IC50 data for 2 compounds are collected here from patent US20100227853A1, “INHIBITORS OF CYCLIC AMP PHOSPHODIESTERASES” (Trustees of Boston College, priority 2008, published 2010).

The chains behind the UniProt entries cited, without tags or fusion partners. Residues count along the entry.
UniProt P27815, 1-825 isoform 6: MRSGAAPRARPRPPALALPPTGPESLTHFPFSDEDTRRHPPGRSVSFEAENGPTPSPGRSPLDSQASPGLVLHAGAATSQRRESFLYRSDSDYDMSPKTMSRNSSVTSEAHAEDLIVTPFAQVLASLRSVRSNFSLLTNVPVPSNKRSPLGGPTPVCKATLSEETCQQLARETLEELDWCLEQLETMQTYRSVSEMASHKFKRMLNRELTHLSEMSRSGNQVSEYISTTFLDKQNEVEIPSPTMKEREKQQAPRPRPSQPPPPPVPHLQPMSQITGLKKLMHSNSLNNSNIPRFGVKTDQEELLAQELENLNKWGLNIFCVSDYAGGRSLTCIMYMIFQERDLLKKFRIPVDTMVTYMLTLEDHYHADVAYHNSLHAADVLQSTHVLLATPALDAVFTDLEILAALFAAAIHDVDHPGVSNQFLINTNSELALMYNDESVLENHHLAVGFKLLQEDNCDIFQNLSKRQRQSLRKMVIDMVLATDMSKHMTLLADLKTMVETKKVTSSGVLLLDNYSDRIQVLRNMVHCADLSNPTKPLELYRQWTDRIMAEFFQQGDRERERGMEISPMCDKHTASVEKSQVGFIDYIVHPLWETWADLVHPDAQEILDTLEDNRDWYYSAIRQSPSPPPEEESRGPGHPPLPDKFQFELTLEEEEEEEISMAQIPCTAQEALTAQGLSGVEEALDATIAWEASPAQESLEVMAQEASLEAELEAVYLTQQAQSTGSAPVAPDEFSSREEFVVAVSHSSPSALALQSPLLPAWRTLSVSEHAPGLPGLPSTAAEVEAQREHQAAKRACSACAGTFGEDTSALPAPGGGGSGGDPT
UniProt Q07343, 1-564 isoform 2: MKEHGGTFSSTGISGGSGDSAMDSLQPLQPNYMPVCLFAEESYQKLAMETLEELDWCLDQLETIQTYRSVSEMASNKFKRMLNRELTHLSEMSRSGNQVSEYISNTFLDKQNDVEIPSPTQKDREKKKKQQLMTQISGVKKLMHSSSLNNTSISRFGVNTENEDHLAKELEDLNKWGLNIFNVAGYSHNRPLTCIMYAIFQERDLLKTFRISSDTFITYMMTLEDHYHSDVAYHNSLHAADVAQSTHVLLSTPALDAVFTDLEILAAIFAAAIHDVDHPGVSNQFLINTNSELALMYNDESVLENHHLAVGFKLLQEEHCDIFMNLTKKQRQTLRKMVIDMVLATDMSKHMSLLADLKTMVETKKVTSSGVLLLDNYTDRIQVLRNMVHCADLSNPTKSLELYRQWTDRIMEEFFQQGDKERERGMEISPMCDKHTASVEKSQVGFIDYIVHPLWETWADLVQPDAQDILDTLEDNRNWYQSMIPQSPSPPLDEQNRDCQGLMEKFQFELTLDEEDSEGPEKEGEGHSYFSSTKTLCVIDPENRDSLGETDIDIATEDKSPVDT
UniProt Q08499, 303-809: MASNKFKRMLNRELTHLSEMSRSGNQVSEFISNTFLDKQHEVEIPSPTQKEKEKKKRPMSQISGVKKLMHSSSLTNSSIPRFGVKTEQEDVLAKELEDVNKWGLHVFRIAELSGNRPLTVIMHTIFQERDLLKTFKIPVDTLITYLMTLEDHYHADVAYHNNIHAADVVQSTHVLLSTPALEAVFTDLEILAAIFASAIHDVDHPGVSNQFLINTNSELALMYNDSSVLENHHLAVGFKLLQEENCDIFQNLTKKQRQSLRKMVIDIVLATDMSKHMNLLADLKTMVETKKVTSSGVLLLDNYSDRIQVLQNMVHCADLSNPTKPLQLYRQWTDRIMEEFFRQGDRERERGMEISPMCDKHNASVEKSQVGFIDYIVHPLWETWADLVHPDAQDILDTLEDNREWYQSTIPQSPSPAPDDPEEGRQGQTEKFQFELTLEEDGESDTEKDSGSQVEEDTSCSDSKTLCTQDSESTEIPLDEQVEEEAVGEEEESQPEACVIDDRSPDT
UniProt Q13946, whole entry: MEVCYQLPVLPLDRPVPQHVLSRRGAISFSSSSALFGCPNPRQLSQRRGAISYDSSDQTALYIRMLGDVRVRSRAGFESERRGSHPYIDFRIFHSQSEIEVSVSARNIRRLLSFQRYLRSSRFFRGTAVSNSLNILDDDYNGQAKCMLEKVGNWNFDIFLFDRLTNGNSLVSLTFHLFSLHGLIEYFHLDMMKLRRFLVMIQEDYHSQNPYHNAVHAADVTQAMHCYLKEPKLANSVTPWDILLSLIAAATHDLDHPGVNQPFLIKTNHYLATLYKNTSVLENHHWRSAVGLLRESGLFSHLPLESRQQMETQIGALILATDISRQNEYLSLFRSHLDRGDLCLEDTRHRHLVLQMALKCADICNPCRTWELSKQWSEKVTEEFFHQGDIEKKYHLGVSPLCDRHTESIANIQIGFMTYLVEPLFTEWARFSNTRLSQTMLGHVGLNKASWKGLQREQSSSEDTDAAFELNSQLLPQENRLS
UniProt Q9NP56, 97-420 limits assumed: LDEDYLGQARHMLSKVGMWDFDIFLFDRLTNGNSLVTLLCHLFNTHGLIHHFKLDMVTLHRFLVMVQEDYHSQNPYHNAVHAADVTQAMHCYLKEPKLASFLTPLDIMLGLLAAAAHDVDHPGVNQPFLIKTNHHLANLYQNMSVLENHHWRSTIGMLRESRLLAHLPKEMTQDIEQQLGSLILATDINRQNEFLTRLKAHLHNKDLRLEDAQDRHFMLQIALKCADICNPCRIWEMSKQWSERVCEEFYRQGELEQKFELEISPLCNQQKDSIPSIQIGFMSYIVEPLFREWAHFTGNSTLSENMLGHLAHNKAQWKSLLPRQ

Molecules are shown by their SMILES.

One may read the IC50 as the midpoint of a concentration-inhibition curve.

One assay addresses PDE4A10 (Homo sapiens, UniProt P27815). Kind of assay: in vitro enzyme assay, E. coli expressed and purified PDE4A10. It counts as biochemical. The following applies: read-out: IC50 (or AC200), PDE4A10.
The target of a further assay is PDE4B2 (Homo sapiens, UniProt Q07343). The experiment in a line: in vitro enzyme assay, E. coli expressed and purified PDE4B2. The class given is biochemical. The following applies: read-out: IC50 (or AC200), PDE4B2.
In a further assay the target is PDE4D2-FL (Homo sapiens, UniProt Q08499). The experiment in a line: in vitro enzyme assay, full-length PDE4D2 (residues 1-507). It counts as biochemical. Conditions: read-out: IC50 (or AC200), PDE4D2-FL.
For a further assay, the target named is PDE7A (Homo sapiens, UniProt Q13946). The experiment in a line: in vitro enzyme assay PDE7A. It counts as biochemical. Conditions: read-out: IC50 (or AC200), PDE7A; E. coli expressed and purified enzyme.
The target in the next assay is PDE7B (Homo sapiens, UniProt Q9NP56). Kind of assay: in vitro enzyme assay, PDE7B catalytic domain from E. coli, hydrolysis of cAMP to AMP. Conditions: read-out: IC50 (or AC200), PDE7B; AC200 = [Compound] that doubles PDE activity.

In the case of `CCOC(=O)c1cc2c(=O)n3ccccc3nc2n(C2CCCCC2)c1=NC(C)=O` (single isomer, unassigned), the IC50 on PDE4A10 is 90 nM; at PDE4B2, 50 nM; at PDE4D2-FL, less than 2000 nM.
With `Cc1sc2ncnc(NC3CCCCC3)c2c1C` [BC28], the concentration for half-maximal inhibition (IC50) on PDE4A10 is more than 10000 nM; at PDE7A, 650 nM; on PDE7B it was 1500 nM; on PDE4B2 it was more than 10000 nM; on PDE4D2-FL, more than 2000 nM.
